The entries are a selection whose mix differs from that of the whole data set.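 In brief: 96-well plates, 48 h treatment, single concentration, percent growth endpoint.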 The source made the active and inactive calls. The calls were made as follows: active = growth percent below 10; inactive = the rest.
Key:
Assay in all cases: NCI-60 one-dose screen, 48 h (100 = growth as untreated, 0 = no growth, -100 = all killed)
Conditions in all cases: 10 µM
SK-MEL-2 melanoma = tested on: SK-MEL-2 melanoma
EKVX NSCLC = tested on: EKVX NSCLC
SN12C renal = tested on: SN12C renal
UO-31 renal = tested on: UO-31 renal
TK-10 renal = tested on: TK-10 renal
ACHN renal = tested on: ACHN renal
CAKI-1 renal = tested on: CAKI-1 renal
A498 renal = tested on: A498 renal
HL-60(TB) leukemia = tested on: HL-60(TB) leukemia
CCRF-CEM leukemia = tested on: CCRF-CEM leukemia
MOLT-4 leukemia = tested on: MOLT-4 leukemia
SR leukemia = tested on: SR leukemia
RPMI-8226 leukemia = tested on: RPMI-8226 leukemia
OVCAR-8 ovarian = tested on: OVCAR-8 ovarian
OVCAR-5 ovarian = tested on: OVCAR-5 ovarian
OVCAR-4 ovarian = tested on: OVCAR-4 ovarian
SK-OV-3 ovarian = tested on: SK-OV-3 ovarian
IGROV1 ovarian = tested on: IGROV1 ovarian
OVCAR-3 ovarian = tested on: OVCAR-3 ovarian
HS 578T breast = tested on: HS 578T breast

Measured: growth

O=C(O)Cc1c[nH]c2ccc(N(CCCl)CCCl)cc12
inactive: SK-MEL-2 melanoma 122% | EKVX NSCLC 103% | SN12C renal 89.9% | UO-31 renal 102% | TK-10 renal 108% | ACHN renal 100% | CAKI-1 renal 77.7% | A498 renal 90.4% | HL-60(TB) leukemia 127% | CCRF-CEM leukemia 90.2% | MOLT-4 leukemia 103% | SR leukemia 86.1% | RPMI-8226 leukemia 99.6% | OVCAR-8 ovarian 112% | OVCAR-5 ovarian 98.4% | OVCAR-4 ovarian 111% | SK-OV-3 ovarian 96.6% | IGROV1 ovarian 92.6% | OVCAR-3 ovarian 108% | HS 578T breast 96.9%

NC(=O)C1(Nc2ccccc2)CCNCC1
inactive: SK-MEL-2 melanoma 97.5% | EKVX NSCLC 107% | SN12C renal 106% | UO-31 renal 85.8% | TK-10 renal 107% | ACHN renal 105% | CAKI-1 renal 102% | HL-60(TB) leukemia 92.2% | CCRF-CEM leukemia 94.9% | MOLT-4 leukemia 91.5% | RPMI-8226 leukemia 105% | OVCAR-8 ovarian 103% | OVCAR-5 ovarian 94.5% | OVCAR-4 ovarian 111% | SK-OV-3 ovarian 106% | IGROV1 ovarian 112% | OVCAR-3 ovarian 108% | HS 578T breast 117%

N#CC(C#N)=Cc1ccc(N(CCCl)CCCl)cc1
inactive: SK-MEL-2 melanoma 101% | EKVX NSCLC 92.9% | SN12C renal 84.7% | UO-31 renal 81.3% | TK-10 renal 98.2% | ACHN renal 83.2% | CAKI-1 renal 53.1% | A498 renal 105% | HL-60(TB) leukemia 65.4% | CCRF-CEM leukemia 69.2% | MOLT-4 leukemia 51.5% | SR leukemia 26.9% | RPMI-8226 leukemia 106% | OVCAR-8 ovarian 82.2% | OVCAR-5 ovarian 98.9% | OVCAR-4 ovarian 82.5% | SK-OV-3 ovarian 70% | IGROV1 ovarian 75.2% | OVCAR-3 ovarian 88.6% | HS 578T breast 95%

O=C(O)c1ccc(N(CCCl)CCCl)cc1
inactive: SK-MEL-2 melanoma 96.8% | EKVX NSCLC 109% | SN12C renal 111% | UO-31 renal 101% | TK-10 renal 107% | ACHN renal 106% | CAKI-1 renal 96.4% | A498 renal 87.4% | HL-60(TB) leukemia 99.9% | CCRF-CEM leukemia 96.3% | MOLT-4 leukemia 93.6% | SR leukemia 87.6% | RPMI-8226 leukemia 107% | OVCAR-8 ovarian 102% | OVCAR-5 ovarian 107% | OVCAR-4 ovarian 114% | SK-OV-3 ovarian 114% | OVCAR-3 ovarian 122% | HS 578T breast 121%

Cc1ccc(NC2(C#N)CCN(Cc3ccccc3)CC2)cc1
inactive: SK-MEL-2 melanoma 99.6% | EKVX NSCLC 90.3% | SN12C renal 88.6% | UO-31 renal 81% | TK-10 renal 109% | ACHN renal 82% | CAKI-1 renal 63.3% | A498 renal 94.8% | HL-60(TB) leukemia 105% | CCRF-CEM leukemia 92.4% | MOLT-4 leukemia 103% | SR leukemia 91.3% | RPMI-8226 leukemia 101% | OVCAR-8 ovarian 95.7% | OVCAR-5 ovarian 105% | OVCAR-4 ovarian 93.1% | SK-OV-3 ovarian 99.4% | IGROV1 ovarian 99.1% | OVCAR-3 ovarian 109% | HS 578T breast 144%

Cc1cc(O)c(CN(CC(C)Cl)CC(C)Cl)cc1C (centres undefined)
inactive: SK-MEL-2 melanoma 105% | EKVX NSCLC 110% | SN12C renal 106% | UO-31 renal 82.3% | TK-10 renal 114% | ACHN renal 101% | CAKI-1 renal 92.6% | A498 renal 129% | HL-60(TB) leukemia 99.2% | CCRF-CEM leukemia 98.9% | MOLT-4 leukemia 91.5% | SR leukemia 91.5% | RPMI-8226 leukemia 107% | OVCAR-8 ovarian 99.2% | OVCAR-5 ovarian 106% | OVCAR-4 ovarian 107% | SK-OV-3 ovarian 93.8% | IGROV1 ovarian 106% | OVCAR-3 ovarian 109% | HS 578T breast 108%

Cc1cccc(CN(CCCl)CCCl)c1
inactive: SK-MEL-2 melanoma 104% | EKVX NSCLC 98.7% | SN12C renal 85.9% | UO-31 renal 78.1% | TK-10 renal 93.4% | ACHN renal 89.1% | HL-60(TB) leukemia 78.7% | CCRF-CEM leukemia 78.3% | MOLT-4 leukemia 78.8% | SR leukemia 52.6% | RPMI-8226 leukemia 91.6% | OVCAR-8 ovarian 88.2% | OVCAR-5 ovarian 102% | OVCAR-4 ovarian 101% | SK-OV-3 ovarian 93.8% | IGROV1 ovarian 72.4% | OVCAR-3 ovarian 83.1%

Cc1cccc(NC2(C#N)CCN(Cc3ccccc3)CC2)c1
inactive: SK-MEL-2 melanoma 129% | EKVX NSCLC 105% | SN12C renal 106% | UO-31 renal 80.1% | TK-10 renal 114% | ACHN renal 91.2% | HL-60(TB) leukemia 94.1% | CCRF-CEM leukemia 92.1% | MOLT-4 leukemia 105% | SR leukemia 99.5% | RPMI-8226 leukemia 97.3% | OVCAR-8 ovarian 104% | OVCAR-5 ovarian 94.8% | OVCAR-4 ovarian 92.7% | SK-OV-3 ovarian 92.2% | IGROV1 ovarian 105% | OVCAR-3 ovarian 118%

NC(=O)C1(Nc2ccccc2)CCN(Cc2ccccc2)CC1
inactive: SK-MEL-2 melanoma 103% | EKVX NSCLC 104% | SN12C renal 104% | UO-31 renal 79.8% | TK-10 renal 110% | ACHN renal 110% | CAKI-1 renal 100% | HL-60(TB) leukemia 101% | CCRF-CEM leukemia 107% | MOLT-4 leukemia 100% | RPMI-8226 leukemia 109% | OVCAR-8 ovarian 108% | OVCAR-5 ovarian 94.1% | OVCAR-4 ovarian 108% | SK-OV-3 ovarian 108% | IGROV1 ovarian 111% | OVCAR-3 ovarian 107% | HS 578T breast 111%
